According to patent US9212214B2, “Methods of increasing the expression yield of vitamin K-dependent proteins” (CSL Limited, priority 2009, dated 2015):

Tested on: CHO cell line expressing recombinant Factor IX fusion protein with human albumin

Substance: Reduced Menadione Sodium Bisulphite [rMSB]
- toxic effect on the cells, overall comparison (at the concentrations used): much less toxic effect on the cells than addition of MSB
- toxicity observed (cell growth) (nominal 2160 ug/10^6 cells/day, did not result in cell death): reduced cell growth
- cell growth (nominal 240 and 720 ug/10^6 cells/day): comparable to the control
